Source: patent US8637702B2, “Derivatives of N-hydroxybenzamide for treating HIV infections” (Italfarmaco S.p.A., priority 2009, dated 2014)

Biological target: T1, HDAC10 (Homo sapiens, UniProt Q969S8)
T1 sequence (Q969S8 1-669): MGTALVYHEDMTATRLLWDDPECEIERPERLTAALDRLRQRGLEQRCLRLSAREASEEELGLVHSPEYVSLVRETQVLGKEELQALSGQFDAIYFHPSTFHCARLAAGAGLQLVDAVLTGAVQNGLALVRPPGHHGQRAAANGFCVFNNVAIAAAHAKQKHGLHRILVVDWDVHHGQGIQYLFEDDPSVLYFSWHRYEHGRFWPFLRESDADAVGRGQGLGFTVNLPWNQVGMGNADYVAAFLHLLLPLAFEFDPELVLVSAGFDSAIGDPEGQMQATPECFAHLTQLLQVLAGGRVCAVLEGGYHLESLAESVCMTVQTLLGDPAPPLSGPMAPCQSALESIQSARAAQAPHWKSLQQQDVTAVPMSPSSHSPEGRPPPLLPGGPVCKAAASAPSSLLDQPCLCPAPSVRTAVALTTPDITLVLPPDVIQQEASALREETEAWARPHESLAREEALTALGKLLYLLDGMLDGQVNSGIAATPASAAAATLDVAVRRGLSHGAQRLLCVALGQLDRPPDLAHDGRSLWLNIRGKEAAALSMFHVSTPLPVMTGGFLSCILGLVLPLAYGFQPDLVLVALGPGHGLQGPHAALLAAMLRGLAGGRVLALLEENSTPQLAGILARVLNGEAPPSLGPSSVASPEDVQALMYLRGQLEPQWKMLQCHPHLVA
Assay: Inhibition of histone deacetylase isoforms, HDAC10

Compound: O=C(CCCCCCC(=O)Nc1ccccc1)NO [SAHA]
- IC50: 152 nM
